Literature values in US20120093882A1, “STABLE PHARMACEUTICAL COMPOSITIONS OF DICLOFENAC” (priority 2009, published 2012).

Conditions: maximum, after 53 h of exposure to sunlight

In the case of `O=C(O)Cc1ccccc1Nc1c(Cl)cccc1Cl` [Diclofenac], the phytotoxicity enhancement is listed as “six fold enhanced toxicity”.
